Assay results: patent US10815205B2, “Amide-substituted phenyltriazole derivatives and uses thereof” (BAYER PHARMA AKTIENGESELLSCHAFT, priority 2016, dated 2020)

Chains of the proteins cited; added tags and fusions are not shown.
UniProt P37288, whole entry: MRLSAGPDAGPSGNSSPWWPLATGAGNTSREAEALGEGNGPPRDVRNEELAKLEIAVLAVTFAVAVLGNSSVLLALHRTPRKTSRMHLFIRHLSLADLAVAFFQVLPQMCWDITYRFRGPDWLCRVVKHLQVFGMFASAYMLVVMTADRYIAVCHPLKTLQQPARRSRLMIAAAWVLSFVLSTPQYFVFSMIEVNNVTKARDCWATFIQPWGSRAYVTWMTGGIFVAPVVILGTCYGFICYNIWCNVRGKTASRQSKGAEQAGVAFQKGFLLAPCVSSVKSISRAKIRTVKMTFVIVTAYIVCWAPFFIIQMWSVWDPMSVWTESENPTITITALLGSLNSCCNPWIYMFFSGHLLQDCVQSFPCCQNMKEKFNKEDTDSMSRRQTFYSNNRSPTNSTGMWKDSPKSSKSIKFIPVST
UniProt P30518, whole entry: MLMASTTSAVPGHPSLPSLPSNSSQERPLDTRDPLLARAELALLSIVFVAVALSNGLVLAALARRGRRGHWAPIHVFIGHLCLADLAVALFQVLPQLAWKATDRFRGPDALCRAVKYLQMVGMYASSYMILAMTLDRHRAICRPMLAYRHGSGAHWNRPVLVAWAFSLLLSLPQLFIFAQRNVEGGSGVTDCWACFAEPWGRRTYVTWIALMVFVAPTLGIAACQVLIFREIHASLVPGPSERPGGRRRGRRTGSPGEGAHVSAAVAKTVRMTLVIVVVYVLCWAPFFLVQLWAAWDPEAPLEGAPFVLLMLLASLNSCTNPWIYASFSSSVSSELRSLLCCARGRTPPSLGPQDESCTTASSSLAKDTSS

How the values were obtained:
human V1a receptor = human V1a receptor (Homo sapiens, UniProt P37288); assay: Cellular in vitro assay for vasopressin receptor activity, V1a receptor cell line (aequorin luminescence); conditions: Table 1B, comparative examples of WO 2011/104322
human V2 receptor = human V2 receptor (Homo sapiens, UniProt P30518); assay: Cellular in vitro assay for vasopressin receptor activity, V2 receptor cell line (CRE-luciferase); conditions: read-out: IC50 hV2, Table 1B, comparative examples of WO 2011/104322

ratio IC50 hV2/hV1a (human V1a receptor): 1.568
IC50 (human V1a receptor; read-out: IC50 hV1a, human V1a cell line): 139 nM
IC50 (human V2 receptor): 218 nM
Structure (SMILES): O=c1n(Cc2cn(-c3ccccc3C(F)(F)F)nn2)nc(-c2ccc(Cl)cc2)n1C[C@H](O)C(F)(F)F
